Source: patent publication US7488745B2, “Compounds for the treatment of inflammatory disorders” (Schering Corporation, priority 2004, dated 2009)

Protein sequences, listed by entry. Tags and fused reporters are not part of them. Residues count along the entry.
UniProt P78536, 215-477 S266A/N452Q limits assumed: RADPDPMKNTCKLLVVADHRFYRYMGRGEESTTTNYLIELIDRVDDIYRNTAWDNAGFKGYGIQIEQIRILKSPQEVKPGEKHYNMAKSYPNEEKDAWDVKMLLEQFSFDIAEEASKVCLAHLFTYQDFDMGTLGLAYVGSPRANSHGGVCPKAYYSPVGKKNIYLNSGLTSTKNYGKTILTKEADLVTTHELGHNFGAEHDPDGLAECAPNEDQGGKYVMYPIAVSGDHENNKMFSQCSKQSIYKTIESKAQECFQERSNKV

Target: purified catalytic domain of recombinant human TACE (rhTACEc) (Homo sapiens, UniProt P78536, N452Q/S266A)
Assay: TACE kinetic assay: cleavage of internally quenched peptide substrate SPDL-3 (fluorescence)
Settings: Ki (nM)
[1] = TACE inhibitory activity, class letters
[2] = Specific TACE inhibitory activity (Ki values)

Work on `O=C1NC(=O)C(CN2Cc3ccc(F)cc3C2=O)(c2ccc(-c3cccc4cnccc34)cc2)N1` (centres unmarked) [Compound 165] yielded a Ki [1] of less than 10 nM.

For `O=C1NC(=O)[C@](CN2Cc3ccc(O)cc3C2=O)(c2ccc(-c3cccc4cccnc34)cc2)N1` [Compound 167], the Ki [1] was less than 10 nM.

`COc1ccc2c(c1)C(=O)N(CC1(c3ccc(-c4ccc5ncccc5c4)cc3)NC(=O)NC1=O)C2` (centres unmarked) [Compound 169] showed a Ki [1] of less than 10 nM.

`O=C1NC(=O)[C@](CN2Cc3ccc(F)cc3C2=O)(c2ccc(-c3cccnc3O)cc2)N1` [Compound 174] gave a Ki [1] of less than 10 nM.

With `Cc1cc(-c2ccc([C@@]3(CN4Cc5ccc(F)cc5C4=O)NC(=O)NC3=O)cc2)ccn1` [Compound 176] the Ki [1] was greater than 1000 nM.

In the case of `O=C1NC(=O)C(CN2Cc3ccc(F)cc3C2=O)(c2cc3ccccc3o2)N1` (centres unmarked) [Compound 177], the Ki [1] is reported as less than 10 nM.

With `O=C1NC(=O)[C@](CN2Cc3ccc(F)cc3C2=O)(c2cc3ccccc3o2)N1` [Compound 178] the Ki [1] was less than 10 nM.

In the case of `O=C1NC(=O)[C@@](CN2Cc3ccc(F)cc3C2=O)(c2cc3ccccc3o2)N1` [Compound 179], the Ki [1] is reported as greater than 1000 nM.

With `O=C1NC(=O)C(CN2Cc3ccc(F)cc3C2=O)(c2nc3ccccc3s2)N1` (centres unmarked) [Compound 180] the Ki [1] was 10 to 100 nM.

For `O=C1NC(=O)[C@](CN2Cc3ccc(F)cc3C2=O)(c2nc3ccccc3s2)N1` [Compound 181], the Ki [2] was 3.17 nM and the Ki [1] was less than 10 nM.

`O=C1NC(=O)[C@@](CN2Cc3ccc(F)cc3C2=O)(c2nc3ccccc3s2)N1` [Compound 182] was tested, and the Ki [1] was 10 to 100 nM.

In the case of `O=C1NC(=O)C(CN2Cc3ccc(F)cc3C2=O)(c2nc3ccccc3[nH]2)N1` (centres unmarked) [Compound 183], the Ki [1] is reported as less than 10 nM.

`COc1ccc2c(c1)C(=O)N(CC1(c3ccc(Br)cc3)NC(=O)NC1=O)C2` (centres unmarked) [Compound 186] showed a Ki [1] of less than 10 nM.

Compound `O=C1NC(=O)C(CN2Cc3ccc(O)cc3C2=O)(c2ccccc2)N1` (centres unmarked) [Compound 187] has a Ki [1] of 10 to 100 nM.

`O=C1NC(=O)C(CN2Cc3cc(O)ccc3C2=O)(c2ccccc2)N1` (centres unmarked) [Compound 188] was tested, and the Ki [1] was less than 10 nM.

Compound `O=C1NC(=O)[C@](CN2Cc3cc(O)ccc3C2=O)(c2ccccc2)N1` [Compound 189] has a Ki [1] of less than 10 nM.

`CC(C)(C)OC(=O)Oc1ccc2c(c1)CN(CC1(c3ccccc3)NC(=O)NC1=O)C2=O` (centres unmarked) [Compound 190] was tested, and the Ki [1] was less than 10 nM.

For `Cc1cc(COc2ccc3c(c2)CN(CC2(c4ccccc4)NC(=O)NC2=O)C3=O)c2ccccc2n1` (centres unmarked) [Compound 191], the Ki [1] was less than 10 nM.

For `Cc1cc(CN2C(=O)NC(CN3Cc4cc(O)ccc4C3=O)(c3ccccc3)C2=O)c2ccccc2n1` (centres unmarked) [Compound 192], the Ki [1] was 100 to 1000 nM.

`Cc1cc(COc2ccc3c(c2)C(=O)N(CC2(C)NC(=O)NC2=O)C3)c2ccccc2n1` (centres unmarked) [Compound 193] showed a Ki [1] of less than 10 nM.

In the case of `Cc1cc(COc2ccc3c(c2)CN(CC2(C)NC(=O)NC2=O)C3=O)c2ccccc2n1` (centres unmarked) [Compound 194], the Ki [1] is reported as less than 10 nM.

`O=C1NC(=O)C(CN2Cc3cc(OCc4cc(-c5ccccc5)nc5ccccc45)ccc3C2=O)(c2ccccc2)N1` (centres unmarked) [Compound 195] was tested, and the Ki [1] was 10 to 100 nM.

With `Cc1cc(COc2ccc3c(c2)CN(C[C@@]2(c4ccccc4)NC(=O)NC2=O)C3=O)c2ccccc2n1` [Compound 196] the Ki [1] was less than 10 nM.

`Cc1cc(COc2ccc3c(c2)C(=O)N(C[C@@]2(c4ccccc4)NC(=O)NC2=O)C3)c2ccccc2n1` [Compound 197] gave a Ki [1] of less than 10 nM.

With `CC#CCOc1ccc2c(c1)C(=O)N(C[C@@]1(c3ccccc3)NC(=O)NC1=O)C2` [Compound 198] the Ki [2] was 1.29 nM and the Ki [1] was less than 10 nM.

`O=C1NC(=O)C(CN2Cc3c(O)cccc3C2=O)(c2ccc(F)cc2)N1` (centres unmarked) [Compound 199] was tested, and the Ki [1] was 100 to 1000 nM.

With `O=C1NC(=O)[C@](CN2Cc3ccc(OCc4cc(-c5ccccc5)nc5ccccc45)cc3C2=O)(c2ccccc2)N1` [Compound 200] the Ki [1] was 10 to 100 nM.

`O=C1NC(=O)C(CN2Cc3ccc(O)cc3C2=O)(c2ccc(Br)cc2)N1` (centres unmarked) [Compound 201] was tested, and the Ki [1] was 10 to 100 nM.

Work on `CC#CCOc1ccc2c(c1)C(=O)N(C[C@@]1(c3ccc(-c4ccncc4)cc3)NC(=O)NC1=O)C2` [Compound 202] yielded a Ki [1] of less than 10 nM.

In the case of `CC#CCOc1ccc2c(c1)C(=O)N(C[C@@]1(c3ccc(F)cc3)NC(=O)NC1=O)C2` [Compound 203], the Ki [2] is reported as 0.23 nM and the Ki [1] is reported as less than 10 nM.

With `CC#CCOc1ccc2c(c1)C(=O)N(C[C@@]1(c3ccc(-c4ccnc(O)c4)cc3)NC(=O)NC1=O)C2` [Compound 204] the Ki [1] was less than 10 nM.

`CC1(CN2Cc3c(ccc(O)c3I)C2=O)NC(=O)NC1=O` (centres unmarked) [Compound 206] gave a Ki [1] of 100 to 1000 nM.

In the case of `O=C1NC(=O)C(CN2Cc3cc(OCc4cc(-c5ccccc5)nc5ccccc45)ccc3C2=O)(c2ccc(F)cc2)N1` (centres unmarked) [Compound 208], the Ki [1] is reported as 10 to 100 nM.

In the case of `CC#CCOc1ccc2c(c1)CN(CC1(c3ccc(F)cc3)NC(=O)N(CC#CC)C1=O)C2=O` (centres unmarked) [Compound 210], the Ki [1] is reported as greater than 1000 nM.

`CC#CCOc1ccc2c(c1)CN(CC1(c3ccc(F)cc3)NC(=O)NC1=O)C2=O` (centres unmarked) [Compound 211] showed a Ki [1] of less than 10 nM.

In the case of `O=C1NC(=O)[C@](CN2Cc3cc(O)ccc3C2=O)(c2ccc(Br)cc2)N1` [Compound 214], the Ki [1] is reported as less than 10 nM.

Compound `CC#CCOc1ccc2c(c1)CN(C[C@@]1(c3ccc(Br)cc3)NC(=O)NC1=O)C2=O` [Compound 215] has a Ki [1] of less than 10 nM.

With `CC#CCOc1ccc2c(c1)CN(C[C@]1(c3ccc(-c4ccncc4)cc3)C(=O)NC(=O)N1CC#CC)C2=O` [Compound 216] the Ki [1] was 100 to 1000 nM.

For `O=C1NC(=O)C(CN2Cc3cc(OCc4ccnc(Cl)c4)ccc3C2=O)(c2ccc(F)cc2)N1` (centres unmarked) [Compound 217], the Ki [1] was less than 10 nM.

Compound `O=C1NC(=O)C(CN2Cc3cc(OCc4nccs4)ccc3C2=O)(c2ccc(F)cc2)N1` (centres unmarked) [Compound 218] has a Ki [1] of 10 to 100 nM.

For `CCCCOc1ccc2c(c1)CN(CC1(c3ccc(F)cc3)NC(=O)NC1=O)C2=O` (centres unmarked) [Compound 220], the Ki [1] was less than 10 nM.

Work on `O=C1NC(=O)[C@](CN2Cc3cc(OCc4ccnc(N5CCOCC5)c4)ccc3C2=O)(c2ccc(F)cc2)N1` [Compound 221] yielded a Ki [1] of 10 to 100 nM.

With `CC(C)CCOc1ccc2c(c1)CN(CC1(c3ccc(Br)cc3)NC(=O)NC1=O)C2=O` (centres unmarked) [Compound 222] the Ki [1] was less than 10 nM.

In the case of `O=C1NC(=O)C(CN2Cc3cc(OCCc4c[nH]c5ccccc45)ccc3C2=O)(c2ccc(Br)cc2)N1` (centres unmarked) [Compound 225], the Ki [1] is reported as less than 10 nM.

For `COC(=O)COc1ccc2c(c1)CN(CC1(c3ccc(Br)cc3)NC(=O)NC1=O)C2=O` (centres unmarked) [Compound 226], the Ki [1] was less than 10 nM.

`CC#CCOc1ccc2c(c1)CN(C[C@@]1(c3ccc(F)cc3)NC(=O)NC1=O)C2=O` [Compound 230] gave a Ki [1] of less than 10 nM.

In the case of `CC#CCOc1ccc2c(c1)CN(C[C@]1(c3ccc(F)cc3)C(=O)NC(=O)N1CC#CC)C2=O` [Compound 231], the Ki [1] is reported as 100 to 1000 nM.

Work on `CCC#CCOc1ccc2c(c1)CN(C[C@@]1(c3ccc(F)cc3)NC(=O)NC1=O)C2=O` [Compound 232] yielded a Ki [2] of 1 nM and a Ki [1] of less than 10 nM.

For `COc1ccc2c(c1)CN(C[C@@]1(c3ccc(Br)cc3)NC(=O)NC1=O)C2=O` [Compound 235], the Ki [1] was less than 10 nM.

`CC#CCOc1ccc2c(c1)CN(C[C@@]1(c3ccc(-c4ccncc4)cc3)NC(=O)NC1=O)C2=O` [Compound 236] was tested, and the Ki [1] was less than 10 nM.

For `O=C1NC(=O)[C@](CN2Cc3cc(OCC#CCO)ccc3C2=O)(c2ccc(F)cc2)N1` [Compound 239], the Ki [2] was 0.11 nM and the Ki [1] was less than 10 nM.

`O=C1NC(=O)[C@](CN2Cc3ccc(OCC#CCO)cc3C2=O)(c2ccc(F)cc2)N1` [Compound 240] was tested, and the Ki [1] was less than 10 nM.

`O=C1NC(=O)[C@](CN2Cc3ccc(OCC#CCO)cc3C2=O)(c2ccc(-c3ccncc3)cc2)N1` [Compound 241] showed a Ki [1] of less than 10 nM.

`O=C1NC(=O)[C@](CN2Cc3ccc(O)cc3C2=O)(c2ccc(F)cc2)N1` [Compound 242] showed a Ki [1] of less than 10 nM.
